Data: patent US20220195388A1

By UniProt entry, the sequences of proteins in these tests, tags left out. Residues count along the entry.
UniProt P07766, 23-207: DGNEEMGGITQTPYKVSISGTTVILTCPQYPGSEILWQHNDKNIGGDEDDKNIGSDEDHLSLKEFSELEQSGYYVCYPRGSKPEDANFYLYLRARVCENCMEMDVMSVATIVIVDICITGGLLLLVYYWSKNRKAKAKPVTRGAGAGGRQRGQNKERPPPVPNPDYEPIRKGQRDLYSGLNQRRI

Biological target: CD3 (TCR/CD3 complex) on the surface of Jurkat cells, PBMCs and T responder cells (UniProt P07766)
Assay: flow cytometry, PBMCs stained with OKT3 Fab-multimers, treated with D-biotin and washed; remaining Fab monomers detected with fresh PE-labeled Strep-Tactin; live cells

- percentage of cells within gate: 0.018%
Substance: αCD3 Fab fragment derived from OKT3, heavy chain C-terminally fused to the Twin-Strep-tag (monomeric, not multimerized)
